The record followed here is ChEMBL document CHEMBL4842369, “Synthesis, structure-activity relationship and antiviral activity of indole-containing inhibitors of Flavivirus NS2B-NS3 protease” (Eur J Med Chem, 2021).

Calls of active or inactive are those of the source. The calls are words filed in the database; no cut-off is given here.

The assay concerns the target Nonstructural protein 3 (Zika virus) (UniProt A0A024AXB9). The assay can be described thus: Competitive inhibition of Zika virus recombinant NS2B (47 to 95 residues)/NS3 (1 to 177 residues) protease expressed in Escherichia coli BL21 using increased concentration of Bz-Nle-Lys-Lys-Arg-AMC substrate.

On to `O=C(NCC1CCNCC1)c1cc2ccc(-c3ccoc3)cc2[nH]1`, for which the result was inactive.
